This passage reports Ki results from ChEMBL document CHEMBL2074273, “Reversal of breast cancer resistance protein (BCRP/ABCG2)-mediated drug resistance by novobiocin, a coumermycin antibiotic” (Int J Cancer, 2004).

The chains behind the UniProt entries cited, without tags or fusion partners. Where a name states a change or a piece, a line headed by the entry shows the natural chain unless it says otherwise.
UniProt Q9UNQ0: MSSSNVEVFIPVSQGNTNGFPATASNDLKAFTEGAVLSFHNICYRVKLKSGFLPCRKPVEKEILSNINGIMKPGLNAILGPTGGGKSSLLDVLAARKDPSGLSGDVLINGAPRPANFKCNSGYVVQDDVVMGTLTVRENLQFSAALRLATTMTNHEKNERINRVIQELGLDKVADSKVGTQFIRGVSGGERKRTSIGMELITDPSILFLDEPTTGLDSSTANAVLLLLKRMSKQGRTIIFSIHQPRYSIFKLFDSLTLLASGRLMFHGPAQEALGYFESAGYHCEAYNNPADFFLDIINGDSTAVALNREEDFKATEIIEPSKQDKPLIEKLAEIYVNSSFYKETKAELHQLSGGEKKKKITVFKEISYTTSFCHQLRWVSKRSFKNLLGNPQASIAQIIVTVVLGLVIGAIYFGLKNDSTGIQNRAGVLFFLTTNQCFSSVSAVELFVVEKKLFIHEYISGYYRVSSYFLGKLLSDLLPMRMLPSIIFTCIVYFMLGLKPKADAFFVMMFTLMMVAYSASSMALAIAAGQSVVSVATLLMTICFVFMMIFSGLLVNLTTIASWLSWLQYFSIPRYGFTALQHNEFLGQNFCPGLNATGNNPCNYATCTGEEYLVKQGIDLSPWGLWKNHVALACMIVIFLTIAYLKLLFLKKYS

The target of this data set is Broad substrate specificity ATP-binding cassette transporter ABCG2 (Homo sapiens, UniProt Q9UNQ0). Put plainly: TP_TRANSPORTER: inhibition of ATP-depdent uptake of topotecan in membrane vesicle from BCRP-expressing PC-6/SN2-5H2 cells. The class given is functional, cell membranes. To be noted: pc-6/sn2-5h.

For `CO[C@@H]1[C@@H](OC(N)=O)[C@@H](O)[C@H](Oc2ccc3c(O)c(NC(=O)c4ccc(O)c(CC=C(C)C)c4)c(=O)oc3c2C)OC1(C)C` [NOVOBIOCIN], the Ki entry was “inhibitor [Ki=-100nM]”.
